Key:
plasma kallikrein = plasma kallikrein (Homo sapiens, UniProt P03952); experiment: Neat human plasma assay (fluorogenic peptide), contact pathway-activated plasma; details: read-out: Human Plasma Assay: IC90; citrated human plasma, 10 nM human FXIIa activation, 100 μM PFR-AMC, room temperature
[1] = molecular target: human activated kallikrein enzyme (Homo sapiens, UniProt P03952); experiment: Inhibition of human activated plasma kallikrein, fluorogenic peptide substrate (PFR-AMC), 500 pM enzyme format; details: read-out: Primary Dose Response Assay: Average EC50, 500 pM activated kallikrein, 30 min preincubation, 10 min reaction, room temperature

Chains of the proteins cited; added tags and fusions are not shown. Residues count along the entry.
UniProt P03952, 391-638 limits assumed: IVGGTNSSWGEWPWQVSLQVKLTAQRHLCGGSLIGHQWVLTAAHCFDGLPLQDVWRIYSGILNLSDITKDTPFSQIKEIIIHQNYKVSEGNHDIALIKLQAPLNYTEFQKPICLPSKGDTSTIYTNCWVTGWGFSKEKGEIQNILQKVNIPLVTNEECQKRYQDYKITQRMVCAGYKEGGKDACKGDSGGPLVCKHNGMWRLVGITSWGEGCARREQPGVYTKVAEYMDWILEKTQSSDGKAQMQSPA
UniProt P03952, 20-390 partner limits assumed: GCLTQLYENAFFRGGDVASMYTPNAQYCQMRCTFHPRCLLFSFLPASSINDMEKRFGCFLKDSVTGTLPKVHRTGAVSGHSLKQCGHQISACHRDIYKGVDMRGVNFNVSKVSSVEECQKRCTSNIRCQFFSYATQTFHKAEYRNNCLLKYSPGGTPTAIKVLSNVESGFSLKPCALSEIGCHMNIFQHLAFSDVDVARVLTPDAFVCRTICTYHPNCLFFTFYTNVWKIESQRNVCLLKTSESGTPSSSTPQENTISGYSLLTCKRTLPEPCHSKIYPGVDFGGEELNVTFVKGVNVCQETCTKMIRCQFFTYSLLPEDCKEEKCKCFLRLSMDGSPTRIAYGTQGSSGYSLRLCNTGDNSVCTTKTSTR

Structure (SMILES)	IC90 (plasma kallikrein)	EC50 [1]
Cc1ccnc(C2CC2C(=O)Nc2cc(NCc3cn4cc(C5CC5)nc(N5CC(=O)N(C)C5=O)c4n3)ncn2)n1 (single isomer, unassigned) [81]	< 500 nM	< 2.5 nM
Cc1ccnc(C2CC2C(=O)Nc2cc(NCc3cn4cc(C5CC5)nc(N5CC(=O)N(C)C5=O)c4n3)ncn2)n1 (single isomer, unassigned) [82]	–	25 to 500 nM

— patent publication US20240226106A1, “INHIBITORS OF PLASMA KALLIKREIN” (SHIRE HUMAN GENETIC THERAPIES, INC., priority 2021, published 2024)
